This experiment has as its system HL-60. Nature of the experiment: Differentiation inducing effect on HL-60 cells. The experiment is classed as functional, Homo sapiens. The gist of the method: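 Line 1 is binding to bovine thymus vitamin D receptor. Lines 3 and 6 are differentiation induction in HL-60 cells.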

In the case of `C=C1/C(=C\C=C2/CCC[C@]3(C)[C@@H]([C@H](C)CCCC(C)(C)O)CC[C@@H]23)C[C@H](O)[C@H](C)[C@@H]1O` (stereo in doubt; form 1), the Relative potency is 13.

These data come from ChEMBL document CHEMBL1133115, “Synthesis, biological evaluation, and conformational analysis of A-ring diastereomers of 2-methyl-1,25-dihydroxyvitamin D(3) and their 20-epimers: unique activity profiles depending on the stereochemistry of the A-ring and at C-20” (2000).
